In ChEMBL document CHEMBL1145940, “Computer modeling of selective regions in the active site of nitric oxide synthases: implication for the design of isoform-selective inhibitors” (J Med Chem, 2003):

Assays:
[1] = Inhibitory activity against endothelial nitric oxide synthase (eNOS)
[2] = Inhibitory activity against neuronal nitric oxide synthase

Structure (SMILES) | Ki [1] | Ki [2]
[H]/N=C(/NCCC[C@H](N)C(=O)N[C@H]1CNC(C(N)=O)C1)N[N+](=O)[O-] (some centres not stated) | 128 µM | 
N=C(NCCC[C@H](N)C(=O)N[C@@H]1CN[C@@H](C(N)=O)C1)N[N+](=O)[O-] |  | 1.1 µM
